Data taken from US11753373B2, “Protease inhibitors as antivirals” (priority 2021, dated 2023).
Like-named read-outs stand apart in the source and are kept apart here.

Columns and labels:
[1] = extraction ratio, compound at 1 uM, human liver microsomes 0.5 mg/mL
[2] = extraction ratio, compound at 1 uM, beagle dog liver microsomes 0.5 mg/mL
[3] = extraction ratio, compound at 1 uM, mouse liver microsomes 0.5 mg/mL
[4] = extraction ratio, compound at 1 uM, SD rat liver microsomes 0.5 mg/mL

| SMILES | Liver Microsomal Stability (ER) Human [1] | Liver Microsomal Stability (ER) Beagle dog [2] | Liver Microsomal Stability (ER) Mouse [3] | Liver Microsomal Stability (ER) SD rat [4] | Liver Microsomal Stability (ER) Human ([1]; tested form: Na salt) | Liver Microsomal Stability (ER) Beagle dog ([2]; tested form: Na salt) | Liver Microsomal Stability (ER) Mouse ([3]; tested form: Na salt) | Liver Microsomal Stability (ER) SD rat ([4]; tested form: Na salt) |
| --- | --- | --- | --- | --- | --- | --- | --- | --- |
| CC1(C)[C@@H]2[C@@H](C(=O)N[C@@H](C#N)C[C@@H]3CCCNC3=O)N(C(=O)[C@@H](NC(=O)C(F)F)C3CC3)C[C@@H]21 | 0.09 | 0.05 | 0.07 | 0.01 |  |  |  |  |
| CC(C)C[C@@H](NC(=O)c1cc2ccccc2[nH]1)C(=O)N[C@@H](C[C@@H]1CCNC1=O)C(O)S(=O)(=O)O (some centres unmarked) |  |  |  |  | 0.02 | −0.04 | 0.01 | 0.16 |
